Test: Thermal stability by TGA, supported vs. unsupported, evaluation method not marked
Settings: not supported/neat; no method footnote
Protocol: To test for such influence, adsorption experiments with butylmethylimidazolium acetate [BMIM][OAc] on four different porous silica types was carried out (FIG. 7a, 7b). The silicas had the following pore diameters: PG2000 (pore diameter 2000 Å), PG500 (pore diameter 500 Å), PG75 (pore diameter 75 Å) and MCM-41 (pore diameter 50 Å).
The silicas had the following pore diameters: PG2000 (pore diameter 2000 Å), PG500 (pore diameter 500 Å) and PG75 (pore diameter 75 Å).
Thermal stability was measured by using thermogravimetric analysis (TGA), with isocratic heating at 5° C. min^−1 under an inert nitrogen and/or dried air atmosphere. The decomposition temperatures were determined from both the T5% onset (onset temperature for 5% decomposition) in an isocratic TGA experiment, and from the inflection point (temperature at the inflection point of TGA curve, which indicates the point where the degradation rate is maximum). For T5% onset measurements, thermal stability was determined in a Mettler-Toledo Star^e TGA/DSC unit by heating from 25° C. to 800° C. with a heating rate of 5° C./min under nitrogen. For inflection point measurements, thermal stability was determined using a TA2950 TGA unit by heating from 25° C. to 800° C. with a heating rate of 5° C./min under dried air.

Choline Acyclovir [Choline Acyclovir [1]]
Thermal Stability: 122.51 °C
